Experimental data from US9737535B2, “Methods for treating cancer using TOR kinase inhibitor combination therapy comprising administering substituted pyrazino[2,3-b]pyrazines” (Signal Pharmaceuticals, LLC, priority 2014, dated 2017).
Counter-ions that a name gives are not always drawn. Like-named read-outs stand apart in the source and are kept apart here.

Experiments:
Assay in all cases: Anti-proliferation assay (ATPLite), Chalice synergy score
HCC-1500 = type: cell-based; set-up: scale not given here
Source text: (§1) Cells were thawed from a liquid nitrogen preserved state.
(§2) The calculation for synergy score is provided below.
(§3) If T≧V0:100*[1−(T−V0)/(V−V0)]

HCC-1187 = type: cell-based; set-up: scale not given here
Source text: as §1, §2, §3

BT-549 = type: cell-based
Source text: as §1, §2, §3

MDA-MB-468 = type: cell-based
Source text: as §1, §2, §3

HCC70 = type: cell-based
Source text: as §1, §2, §3

MCF7 = type: cell-based
Source text: as §1, §2, §3

HCC-1937 = type: cell-based
Source text: as §1, §2, §3

MDA-MB-436 = type: cell-based
Source text: as §1, §2, §3

MDA-MB-157 = type: cell-based
Source text: as §1, §2, §3

HCC-1428 = type: cell-based
Source text: as §1, §2, §3

BT-20 = type: cell-based; set-up: scale not given here
Source text: as §1, §2, §3

HCC-1806 = type: cell-based
Source text: as §1, §2, §3

MDA-MB-231 = type: cell-based
Source text: as §1, §2, §3

BT-474 = type: cell-based
Source text: as §1, §2, §3

Hs-578-T = type: cell-based
Source text: as §1, §2, §3

MDA-MB-453 = test system: MDA-MB-453
[1] = Compound 1 in combination with second active agent, MDA-MB-231, mean self-cross + 2σ threshold 2.61

## CN(Cc1cnc2nc(N)nc(N)c2n1)c1ccc(C(=O)N[C@@H](CCC(=O)O)C(=O)O)cc1 [Methotrexate]
HCC-1500
  Synergy score: 1.92
HCC-1187
  Synergy score: 1.94
BT-549
  Synergy score: 0.73
MDA-MB-468
  Synergy score: 1.53
HCC70
  Synergy score: 1.76
MCF7
  Synergy score: 0.57
HCC-1937
  Synergy score: 0.69
MDA-MB-436
  Synergy score: 0.22
MDA-MB-157
  Synergy score: 1.68
HCC-1428
  Synergy score: 0.27

## Bleomycin Sulfate
BT-20
  Synergy score: 1.46
HCC-1806
  Synergy score: 0.62
MDA-MB-468
  Synergy score: 4.70
HCC70
  Synergy score: 1.43
MDA-MB-436
  Synergy score: 3.57
MDA-MB-157
  Synergy score: 6.00

## N[C@@H](Cc1ccc(N(CCCl)CCCl)cc1)C(=O)O [Melphalan]
BT-20
  Synergy score: 0.16
HCC-1187
  Synergy score: 3.43
MDA-MB-231
  Synergy score: 0.54
BT-474
  Synergy score: 0.64
HCC-1806
  Synergy score: 0.24
HCC70
  Synergy score: 1.34
MCF7
  Synergy score: 0.24
HCC-1937
  Synergy score: 1.13
Hs-578-T
  Synergy score: 1.83
MDA-MB-436
  Synergy score: 1.61

## CC(C)C[C@H](NC(=O)[C@H](Cc1ccccc1)NC(=O)c1cnccn1)B(O)O [Bortezomib]
HCC-1500
  Synergy score: 1.37
BT-20
  Synergy score: 2.93
HCC-1187
  Synergy score: 3.01
MDA-MB-231
  Synergy score: 1.28
BT-474
  Synergy score: 0.58
BT-549
  Synergy score: 2.66
HCC-1806
  Synergy score: 5.67
MDA-MB-468
  Synergy score: 4.83
MCF7
  Synergy score: 1.77
Hs-578-T
  Synergy score: 2.20
MDA-MB-436
  Synergy score: 3.90
HCC-1428
  Synergy score: 1.46

## CNC(=O)c1cc(Oc2ccc(NC(=O)Nc3ccc(Cl)c(C(F)(F)F)c3)cc2)ccn1 [Sorafenib]
HCC-1187
  Synergy score: 0.64

## CCN(CC)CCNC(=O)c1c(C)[nH]c(/C=C2\C(=O)Nc3ccc(F)cc32)c1C [Sunitinib Malate]
HCC-1500
  Synergy score: 0.20
BT-474
  Synergy score: 0.47
HCC70
  Synergy score: 2.39
HCC-1937
  Synergy score: 0.28
MDA-MB-436
  Synergy score: 0.92

## C#Cc1cccc(Nc2ncnc3cc(OCCOC)c(OCCOC)cc23)c1 [Erlotinib Hydrochloride]
BT-20
  Synergy score: 9.18
BT-549
  Synergy score: 1.78
MDA-MB-468
  Synergy score: 6.38
HCC-1937
  Synergy score: 4.10
Hs-578-T
  Synergy score: 2.11
MDA-MB-157
  Synergy score: 2.36

## O=C(Nc1cccc(Nc2ncc(Br)c(NCCc3c[nH]cn3)n2)c1)N1CCCC1 [BX-912]
MDA-MB-231; [1]
  Synergy score: 2.21

## O=C(/C=C/c1cccnc1)NCCCCC1CCN(C(=O)c2ccccc2)CC1 [FK-866]
MDA-MB-157; Compound 1 in combination with second active agent, MDA-MB-157, mean self-cross + 2σ threshold 4.68
  Synergy score: 1.43

## O=c1[nH]cc(F)c(=O)[nH]1 [Fluorouracil]
MDA-MB-231
  Synergy score: 0.35
HCC-1806
  Synergy score: 0.85
MDA-MB-468
  Synergy score: 0.60
HCC-1937
  Synergy score: 0.63
Hs-578-T
  Synergy score: 1.50

## CN(C)/N=N/c1[nH]cnc1C(N)=O [Dacarbazine]
HCC-1500
  Synergy score: 1.21
BT-474
  Synergy score: 0.71
MDA-MB-468
  Synergy score: 0.23
MCF7
  Synergy score: 0.12
Hs-578-T
  Synergy score: 0.88

## CCCCCOC(=O)Nc1nc(=O)n([C@@H]2O[C@H](C)[C@@H](O)[C@H]2O)cc1F [Capecitabine]
HCC-1500
  Synergy score: 1.82
BT-474
  Synergy score: 0.77
BT-549
  Synergy score: 0.17
HCC-1806
  Synergy score: 0.51
MDA-MB-468
  Synergy score: 0.37
MDA-MB-436
  Synergy score: 0.12
MDA-MB-453
  Synergy score: 0.48

## NS(=O)(=O)OC[C@@H]1C[C@@H](n2ccc3c(N[C@H]4CCc5ccccc54)ncnc32)C[C@@H]1O [MLN-4924]
MDA-MB-231; [1]
  Synergy score: 2.34
MDA-MB-436; Compound 1 in combination with second active agent, MDA-MB-436, mean self-cross + 2σ threshold 1.91
  Synergy score: 1.43

## CS(=O)(=O)CCNCc1ccc(-c2ccc3ncnc(Nc4ccc(OCc5cccc(F)c5)c(Cl)c4)c3c2)o1 [Lapatinib]
HCC-1187
  Synergy score: 2.35
BT-549
  Synergy score: 0.98
HCC-1806
  Synergy score: 5.01
HCC70
  Synergy score: 8.14
HCC-1937
  Synergy score: 3.59
MDA-MB-157
  Synergy score: 1.54
